Data published in patent US9045445B2, “Glycine transporter-1 inhibitors, methods of making them, and uses thereof” (Albany Molecular Research, Inc., priority 2010, dated 2015).
Where a name gives a salt, the structure may show the parent alone.

Target: T1, glycine transporter-1 (GlyT-1) (Homo sapiens, UniProt P48067)
T1 construct: JAR cells (ATCC#HTB-144), which endogenously express GlyT-1; host or cells: JAR human choriocarcinoma cells
T1 sequence (P48067 1-706): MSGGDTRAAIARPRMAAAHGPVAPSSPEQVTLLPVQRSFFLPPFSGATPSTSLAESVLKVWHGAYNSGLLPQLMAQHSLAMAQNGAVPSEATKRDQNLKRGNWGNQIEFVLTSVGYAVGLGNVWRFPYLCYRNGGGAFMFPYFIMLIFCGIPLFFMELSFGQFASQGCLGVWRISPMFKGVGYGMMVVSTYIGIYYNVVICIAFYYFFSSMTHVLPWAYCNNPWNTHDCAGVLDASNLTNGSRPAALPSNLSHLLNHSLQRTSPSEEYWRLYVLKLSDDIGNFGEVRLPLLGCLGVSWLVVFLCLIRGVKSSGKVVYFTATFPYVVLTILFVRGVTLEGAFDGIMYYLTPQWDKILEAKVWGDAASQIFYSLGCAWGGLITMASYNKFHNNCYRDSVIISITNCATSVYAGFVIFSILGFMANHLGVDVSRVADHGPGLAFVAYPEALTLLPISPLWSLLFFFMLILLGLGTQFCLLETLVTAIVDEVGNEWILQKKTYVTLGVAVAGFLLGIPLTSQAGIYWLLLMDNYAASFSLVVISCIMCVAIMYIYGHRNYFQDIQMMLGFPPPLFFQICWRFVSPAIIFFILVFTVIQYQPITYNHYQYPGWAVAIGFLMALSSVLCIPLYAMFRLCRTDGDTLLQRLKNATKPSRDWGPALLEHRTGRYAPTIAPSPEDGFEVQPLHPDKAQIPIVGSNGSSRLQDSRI
Assay: [14C]glycine uptake assay in JAR cells endogenously expressing GlyT-1 (scintillation proximity)
Type: cell-based
Settings: [14C]glycine 5 μM, 3 hour incubation
Description: The inhibitory activity of compounds of the invention against the glycine transporter-1 (GlyT-1) can be determined by the following scintillation proximity assay. The potency of each compound was assessed in inhibiting the uptake of radiolabeled glycine ([^14C]glycine) using the human choriocarcinoma cell line, JAR cells (ATCC#HTB-144), which endogenously express GlyT-1. In brief, 50,000 JARS cells were plated per well of tissue culture treated 96-well Cytostar-T plate (PerkinElmer) in RPMI media supplemented with 10% heat inactivated FBS and allowed to attach overnight at 37° C. and 5% CO2. Compounds were serially diluted 3-fold in DMSO generating a nine (9) data point response curve for each compound. Two replicates were performed per determination. The compounds were then diluted into Uptake Buffer (10 mM Hepes, 120 mM NaCl, 2 mM KCl, 1 mM CaCl2 and 1 mM MgCl2, 5 mM Alanine, pH 7.4) with a final DMSO concentration of 0.75% (v/v). […] Following a 3 hour incubation period at 37° C. and 5% CO2, the plates were sealed and placed at room temperature in the dark for 15 minutes prior to quantification of incorporated radioactivity using a MicroBeta Trilux scintillation plate reader (PerkinElmer). […]

- IC50: 0.782 µM
Compound: CCCS(=O)(=O)N1CCN(C2(CNC(=O)c3ccccc3)CCCCC2)CC1 [compound 24, N-((1-(4-(Propylsulfonyl)piperazin-1-yl)cyclohexyl)methyl) benzamide Hydrochloride]
